## Binding of CDR-mutated scFvs to a peptide of the spike HR2 region

Source: Li et al. 2023 (doi:10.1038/s41467-023-39022-2), MIT Lincoln Laboratory and A-Alpha Bio; data file from the FLAb repository.

All variants were tested on one target, the spike HR2 peptide PDVDLGDISGINAS (SARS-CoV-2).

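Phage display of a naive human antibody library on the peptide gave the parent. This is the validation round: designs drawn from the data on random variants, tested in the same kind of assay. Several design methods are mixed in this list. The assay is AlphaSeq: two haploid yeast populations carry antibody and antigen on their surface. Mating (16 h, 30 °C) was followed by selection of diploids and sequencing of their barcodes. A regression on co-assayed BCL2-family reference pairs converts the normalised counts of each replicate to an apparent Kd. There are six technical replicates.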

Parent: Ab-14, a human scFv built as VH, the linker GGGGSGGGGSGGGGS, VL. Only the CDRs of the heavy chain vary.
VH: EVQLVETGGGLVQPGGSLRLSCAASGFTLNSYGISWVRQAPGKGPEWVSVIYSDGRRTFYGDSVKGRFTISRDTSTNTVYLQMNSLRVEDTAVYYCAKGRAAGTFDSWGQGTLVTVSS
VL: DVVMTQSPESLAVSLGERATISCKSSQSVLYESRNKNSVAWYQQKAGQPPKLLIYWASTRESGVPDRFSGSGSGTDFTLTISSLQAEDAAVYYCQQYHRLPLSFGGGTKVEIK

Variants are written as CDR1, CDR2 and CDR3 of the heavy chain (limits as in the source). Parent: GFTLNSYGIS, VIYSDGRRTFYGDSVK, GRAAGTFDS.
The read-out is the apparent dissociation constant on a log10 scale (nM): the lower, the stronger.
Replicates are averaged; those with no signal do not enter the mean.
"nd" marks a missing value. The strain was present, yet no cells mated with the target were sequenced in any replicate, which points to weak or no binding.
The list is sorted by this average, lowest first, undetected variants last.
The range of this assay differs from that of the first round, and the authors advise against merging the two.

| CDR-H1 | CDR-H2 | CDR-H3 | log10 Kd (nM), mean | seen in | control signals |
|---|---|---|---|---|---|
| GFDLSEYGIS | VIYADGMRTAYADSVK | GNVAGTFDV | -0.91 | 6 of 6 | 0 of 18 |
| GFDLNEYGIS | VIYADGQRKAYADSVK | GNVAGTFDT | -0.76 | 6 of 6 | 0 of 18 |
| GFDLNEYGIS | VIYADGRRTAYADDVK | GNVAGTFDL | -0.71 | 6 of 6 | 0 of 18 |
| GFTLNSYGIS | VIYADGRRTFYGDSVK | GTAAGTFKL | -0.67 | 6 of 6 | 0 of 18 |
| GFNLNEYGIS | VIYADGRRTFYADSVK | GENAGTFDF | -0.63 | 6 of 6 | 0 of 18 |
| GFDLEEYGIS | VIYADGRRTAYADDVK | GNVAGTFDV | -0.55 | 6 of 6 | 0 of 18 |
| GFDLNEYGIS | VIYADGVRTAYIDSVK | GENAGTFDI | -0.53 | 6 of 6 | 0 of 18 |
| GFDLNEYGIS | VIYADGVRTAYSDSVK | GQNAGTFDI | -0.49 | 6 of 6 | 1 of 18 |
| GFSLNEYGIS | VIYSDGRRTFYGDSVK | GKAAGTFDN | -0.49 | 3 of 6 | 0 of 18 |
| GFDLNEYGIS | VIYADGRRTFYVDSVK | GEIAGTFDQ | -0.36 | 6 of 6 | 1 of 18 |
| GFDLNEYGIS | VIYADGMRSAYADSVK | GEVAGTFDV | -0.31 | 6 of 6 | 1 of 18 |
| GFNLNEYGIS | VIYADGMRTFYTDSVK | GETAGTFDV | -0.24 | 6 of 6 | 0 of 18 |
| GFGLNSYGIS | VIYADGRRTFYGDSVK | GNAAGTFDT | -0.24 | 6 of 6 | 0 of 18 |
| GFGLNSYGIS | VIYADGRRTFYGDSVK | GTAAGTFDS | -0.22 | 6 of 6 | 0 of 18 |
| GFDLNEYGIS | VIYADGQRTFYADSVK | GNVAGTFDL | -0.20 | 6 of 6 | 0 of 18 |
| GFQLNEYGIS | VIYSDGRRTFYGDAVK | GRAAGTFDI | -0.17 | 5 of 6 | 0 of 18 |
| GFDLEEYGIS | VIYADGKRTAYADSVK | GNVAGTFDV | -0.17 | 6 of 6 | 0 of 18 |
| GFDLEDYGIS | VIYADGMRTAYSDSVK | GEVAGTFDV | -0.13 | 6 of 6 | 0 of 18 |
| GFSLNSYGIS | VIYSDGRRTFYADSVK | GRSAGTFDS | -0.05 | 6 of 6 | 0 of 18 |
| GFTLNSYGIS | VIYSDGKRTFYGDSVK | GSAAGTFDL | 0.23 | 6 of 6 | 0 of 18 |
| GFTLNSYGIS | VIYSDGRRTFYIDDVK | GNAAGTFDS | 0.25 | 5 of 6 | 0 of 18 |
| GFDLDEYGIS | VIYADGRRTAYTDSVK | GENAGTFDV | 0.56 | 6 of 6 | 0 of 18 |
| GADLNEYGIS | VIYADGDRKAYQDDFK | GTVGGDFDE | 0.60 | 6 of 6 | 0 of 18 |
| GFSLNSYGIS | VIYSDGRRTFYIDSVK | GKNAGTFDS | 0.61 | 5 of 6 | 0 of 18 |
| GFNLNSYGIS | VIYSDGRRTFYIDEVK | GRTAGTFDS | 0.67 | 6 of 6 | 0 of 18 |
| GFQIDEYGIS | VIYADGKRSGYKNTVK | GNFNISGSI | 0.77 | 6 of 6 | 2 of 18 |
| GFTLNEYGIS | VIYSDGRRTFYIDSVK | GRIAGTFDS | 0.89 | 6 of 6 | 0 of 18 |
| GFELNSYGIS | VIYSDGRRTFYGDSVK | GKTAGTFDQ | 0.90 | 6 of 6 | 0 of 18 |
| GFDLEDYGIS | VIYADGRRTAYIDSVK | GEAAGTFDV | 0.97 | 6 of 6 | 0 of 18 |

Second part, the sequence after the result:

| log10 Kd (nM), mean | seen in | control signals | CDR-H1 | CDR-H2 | CDR-H3 |
|---|---|---|---|---|---|
| 0.98 | 6 of 6 | 0 of 18 | GFTLNSYGIS | VIYSDGRRTFYDDSVK | GKVAGTFDS |
| 1.12 | 3 of 6 | 0 of 18 | GFTLNDYGIS | VIYSDGERTFYCDSVK | GRAAGTFDS |
| 1.46 | 1 of 6 | 0 of 18 | GFTLNSYGIS | VIYSDGRRTFYKDSVK | GTAAGTGDS |
| 1.49 | 6 of 6 | 0 of 18 | GFTLNSYGIS | VIYADGRRTFYGDSVK | NRAAGTFDS |
| 1.57 | 1 of 6 | 0 of 18 | GFDIEEYGIS | VIYADGQRTVYADDVK | GIAKGSSLT |
| 1.87 | 6 of 6 | 1 of 18 | GKSLNSYGIS | VIYSDGRRTFYSDSVK | GRTAGTFDS |
| 1.99 | 4 of 6 | 0 of 18 | GFTLNSYGIS | VIYSDGRRTFYGDSVK | GRMAGTFDS |
| 2.45 | 1 of 6 | 1 of 18 | GFTLNSYGIS | VIYSDGRRTQYSDSVK | GQAAGTFDS |
| 2.72 | 1 of 6 | 0 of 18 | GFSLNEYGIS | VIYADGTRTAYADDVK | GAYDTVAVL |
| nd | 0 of 6 | 0 of 18 | GFILDEYGIS | VIYADGQRSAYKDSVK | GVDDATGFI |
| nd | 0 of 6 | 0 of 18 | GFDLNEYGIS | VIYADGRRTFYSDSVK | GETAGFFDE |
| nd | 0 of 6 | 0 of 18 | GFEIDEYGIS | VIYADGIRESYNDNVK | GQTGGAFDL |
| nd | 0 of 6 | 0 of 18 | GFTLNSYGIS | VIYSDGRRTFYGDSVK | GRAAGTMDV |
| nd | 0 of 6 | 0 of 18 | GFSLNEYGIS | VIYSDGRRTFYCDSVK | GPAAGTFDK |
| nd | 0 of 6 | 0 of 18 | KFNLNSYGIS | VIYSDGRRTFYGDSVK | GKQAGTFDS |
| nd | 0 of 6 | 0 of 18 | GKDLEEYGIS | VIYADGFRTAYKNQVK | GSGVIDTMV |
| nd | 0 of 6 | 0 of 18 | GFTLNSYGIS | VTYSDGRRTFYSDSYK | GRAAGTFKS |
| nd | 0 of 6 | 0 of 18 | LFTLNDYGIS | VIYSDGRRTFYQDSVK | GQAAGTFDS |
| nd | 0 of 6 | 0 of 18 | GFQINEYGIS | VIYADGMRTGYADDVK | GMKDGNIFD |
| nd | 0 of 6 | 0 of 18 | GFNLMSYGIS | VIYSDGRRTFYGDSVK | GRAGGTFNS |
| nd | 0 of 6 | 0 of 18 | GFSLNNYGIS | VIYSDGRRTFYGDWVK | GRTAGTFDS |
| nd | 0 of 6 | 0 of 18 | GFSLDEYGIS | VIYADGMRAAYQPSVK | GFTGFVVAL |
| nd | 0 of 6 | 0 of 18 | GFELDEYGIS | VIYADGVRTQYKQSFK | GGIFGYIAG |
| nd | 0 of 6 | 0 of 18 | LFTLNEYGIS | VIYSDGRRTFYGDSVK | GRAAVTFDQ |
| nd | 0 of 6 | 0 of 18 | GYTLNSYGIS | VIYSDGRRTFYSDSVK | GRAAGTFPS |
| nd | 0 of 6 | 0 of 18 | GFTLNSYGIS | VIYSDYERTFYGDSVK | GRAAGTFDS |
| nd | 0 of 6 | 0 of 18 | GFTLQSYGIS | VIYSDGRRTFYGDSVK | GRAAGVFDS |
| nd | 0 of 6 | 1 of 18 | GFELQEYGIS | VIYADGMKQAYRDAVK | GGIAGNFMM |
| nd | 0 of 6 | 1 of 18 | GFAVNSYGIS | VIYSDGRRTFYGDSVV | GDAHGTFDS |
| nd | 0 of 6 | 0 of 18 | GFDLNEYGVS | VIYADGFRTSYTDSVK | GNIFDLSMA |

From the list, the first 7 with no signal in any replicate:

| CDR-H1 | CDR-H2 | CDR-H3 | log10 Kd (nM), mean | seen in | control signals |
|---|---|---|---|---|---|
| GFILDEYGIS | VIYADGQRSAYKDSVK | GVDDATGFI | nd | 0 of 6 | 0 of 18 |
| GFDLNEYGIS | VIYADGRRTFYSDSVK | GETAGFFDE | nd | 0 of 6 | 0 of 18 |
| GFEIDEYGIS | VIYADGIRESYNDNVK | GQTGGAFDL | nd | 0 of 6 | 0 of 18 |
| GFTLNSYGIS | VIYSDGRRTFYGDSVK | GRAAGTMDV | nd | 0 of 6 | 0 of 18 |
| GFSLNEYGIS | VIYSDGRRTFYCDSVK | GPAAGTFDK | nd | 0 of 6 | 0 of 18 |
| KFNLNSYGIS | VIYSDGRRTFYGDSVK | GKQAGTFDS | nd | 0 of 6 | 0 of 18 |
| GKDLEEYGIS | VIYADGFRTAYKNQVK | GSGVIDTMV | nd | 0 of 6 | 0 of 18 |

Of ten entries with the parent sequence, four were seen in most replicates (averages 0.34 to 2.37), three in one and three in none, so single entries are noisy.
Empty control strains, which show no peptide, gave a signal in 1% of pairings with all heavy chain designs; the median was 2.08 and 95% of these signals were weaker than 0.84. No background was subtracted. The control count says in how many pairings with the empty strains this scFv gave a signal.
The authors' rule: three or more of the six replicates give a measured affinity, fewer mean a poor binder.